The subject of test [1] is T-Rex 293 cell line SC3 cells having increased expression of androgen receptor protein due to exposure to doxycycline. In words: Cellular growth inhibition, T-Rex 293 SC3 cells with doxycycline (androgen receptor induced), CellTiter-Glo. Conditions: T-Rex 293 SC3 cells with 10 ng/mL doxycycline (increased androgen receptor expression), 72 hours. How it is done:
(§1) The following types of cells were prepared for this experiment: (i) a T-Rex 293 cell line having increased expression of androgen receptor protein due to exposure to doxycycline and (ii) a T-Rex 293 cell line lacking increased expression of androgen receptor protein. Ability of the test compounds to inhibit proliferation of the foregoing cell types was evaluated according to the procedures set forth below.
(§2) The doxycycline-inducible androgen receptor protein expressing cell line was established using the following protocol: T-Rex 293 cells were purchased from Invitrogen (Cat #R71007) and transfected using Lipofectamine 2000 with the wild-type androgen receptor protein sequence cloned into the pcDNA4/TO vector. Transfected cells were selected using 400 μg/mL Zeocin (Invitrogen Cat #R25001). Following selection, single clones were raised and maintained in Dulbecco's Modified Eagle Medium (DMEM) supplemented with 10% w/w Tetracycline-free fetal bovine serum (FBS) and 250 μg/mL Zeocin. Clones were analyzed for expression of androgen receptor protein in the presence and absence of 10 ng/mL doxycycline (Sigma Cat #D9891), and a single doxycycline-inducible clone (hereinafter “SC3”) was selected for use in downstream assays. […]
(§3) At 24 hours after seeding of the cells, dilutions of test compound were prepared in DMSO and dissolved in Treatment Medium, to achieve a final DMSO concentration of 0.5% w/w, thereby providing the Test Compound Solution. […] At the end of the treatment duration, cell viability was quantified with CellTiter-Glo 2.0 reagent (Promega Cat #G9243). […] Following incubation, the plates were spun at 3000×g for 30 seconds, then sealed with an optical adhesive cover, and luminescence readings were measured with an EnVision Plate Reader. Data was normalized using zero luminescence for baseline. […]
On the technique in general: ATP-based viability assays read luminescence as a measure of living cells.

Protein sequences, listed by entry. Tags and fused reporters are not part of them.
UniProt P10275, whole entry T878A: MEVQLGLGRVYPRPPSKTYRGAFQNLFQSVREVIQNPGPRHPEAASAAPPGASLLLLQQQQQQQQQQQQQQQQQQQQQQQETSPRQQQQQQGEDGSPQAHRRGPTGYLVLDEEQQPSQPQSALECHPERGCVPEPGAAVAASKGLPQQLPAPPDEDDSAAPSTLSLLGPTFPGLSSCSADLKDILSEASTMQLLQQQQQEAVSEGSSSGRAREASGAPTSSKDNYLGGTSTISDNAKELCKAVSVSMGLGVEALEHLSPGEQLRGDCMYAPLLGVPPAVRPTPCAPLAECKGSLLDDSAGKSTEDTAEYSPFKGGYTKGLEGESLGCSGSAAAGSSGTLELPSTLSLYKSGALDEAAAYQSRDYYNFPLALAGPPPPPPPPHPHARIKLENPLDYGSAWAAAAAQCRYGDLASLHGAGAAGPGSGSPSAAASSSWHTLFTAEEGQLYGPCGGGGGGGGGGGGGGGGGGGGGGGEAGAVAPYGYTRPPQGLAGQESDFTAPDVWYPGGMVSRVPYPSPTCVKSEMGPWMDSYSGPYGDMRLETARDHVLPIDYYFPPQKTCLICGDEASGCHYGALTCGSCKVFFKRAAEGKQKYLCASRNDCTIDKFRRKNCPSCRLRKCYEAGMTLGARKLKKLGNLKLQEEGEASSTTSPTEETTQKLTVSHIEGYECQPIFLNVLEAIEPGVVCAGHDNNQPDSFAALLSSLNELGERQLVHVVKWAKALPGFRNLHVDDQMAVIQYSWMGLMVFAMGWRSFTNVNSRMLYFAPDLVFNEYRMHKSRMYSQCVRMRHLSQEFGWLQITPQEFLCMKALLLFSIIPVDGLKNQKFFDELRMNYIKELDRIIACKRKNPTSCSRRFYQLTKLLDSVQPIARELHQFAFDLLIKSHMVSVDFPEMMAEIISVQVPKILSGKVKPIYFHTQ

The subject of test [2] is T-Rex 293 cell line SC3 cells lacking increased expression of androgen receptor protein. In words: Cellular growth inhibition, T-Rex 293 SC3 cells without doxycycline, CellTiter-Glo. Conditions: T-Rex 293 SC3 cells not exposed to doxycycline; 72 hours; CellTiter-Glo 2.0. As to the method: as §1, §2, §3
The test system of another test is VCaP cells. The test can be described thus: Cellular growth inhibition assay for VCaP cells, CellTiter-Glo. Conditions: 72 hours treatment, CellTiter-Glo 2.0. As to the method: VCaP cells were purchased from American Type Cell Culture (ATCC Cat #CRL2876) and then seeded on poly-D-lysine coated, black clear-bottom 384-well plates at 5000/well in 25 μL Dulbecco's Modified Eagle Medium (DMEM) supplemented with 10% w/w Fetal bovine serum (FBS) and 1% w/w Pen-Strep. Pen-Strep is a commercially available mixture of penicillin G and streptomycin, which is used in mammalian cell culture media to prevent bacterial contamination. Dulbecco's Modified Eagle Medium (DMEM) supplemented with 10% w/w fetal bovine serum (FBS) and 1% w/w Pen-Strep is herein referred to as Treatment Medium. Following seeding of cells in the plates, the plates were spun at 300×g for 30 seconds, then equilibrated to room temperature for 30 minutes, and then deposited in a humidified tissue culture incubator maintained at 37° C. with 5% CO2.
At 24 hours after seeding of the cells, dilutions of test compound were prepared in DMSO and dissolved in Treatment Medium, to achieve a final DMSO concentration of 0.5% w/w, thereby providing the Test Compound Solution. A 25 μL aliquot of the Test Compound Solution was added to cells in the well plates. An equal volume of a solution containing DMSO and Treatment Medium was used as a negative control. Following treatment of cells with Test Compound Solution or said equal volume of a solution containing DMSO and Treatment Medium, the plates were spun at 300×g for 30 seconds, and then left in an incubator for 72 hours.
At the end of the treatment duration, cell viability was quantified with CellTiter-Glo 2.0 reagent (Promega Cat #G9243). For this purpose, plates were equilibrated to room temperature for 30 minutes, and then 25 μL of CellTiter-Glo 2.0 reagent was added to cells in the plate wells. […] Following incubation, the plates were spun at 3000×g for 30 seconds, then sealed with an optical adhesive cover, and luminescence readings were measured with an EnVision Plate Reader.
Data was normalized using zero luminescence for baseline. […]

The next test deals with androgen receptor (Homo sapiens, UniProt P10275). In words: Assay for binding affinity to androgen receptor ([3H]methyltrienolone radioligand, cell cytosol). Conditions: 1 nM [3H]methyltrienolone, 24 hours at 4° C., Table 5. How it is done:
Fractions of cell cytosol ([…] cell/point) were incubated for 24 hours at 4° C. with 1 nM [^3H]methyltrienolone in the absence or presence of the test compound in a buffer containing 25 mM Hepes-Tris (pH 7.4), 1 mM EDTA, 10 mM Na2MoO4, 2 mM DTT, 5 μM triamcinolone acetonide, and 10% glycerol. Nonspecific binding was determined in the presence of 1 μM testosterone. Following incubation, the samples were filtered rapidly under vacuum through glass fiber filters (GF/B, Packard) presoaked with 0.3% PEI and rinsed several times with ice-cold 50 mM Tris-HCl using a 96-sample cell harvester (Unifilter, Packard). The filters were dried then counted for radioactivity in a scintillation counter (Topcount, Packard) using a scintillation cocktail (Microscint 0, Packard). The results are expressed as a percent inhibition of the control radioligand specific binding. The standard reference compound is testosterone, which is tested in each experiment at several concentrations to obtain a competition curve from which its IC50 is calculated.

One may read the GI50 as the concentration that inhibits growth by half. Higher therefore signals lower sensitivity of the cells. The term Kd denotes the constant that tells how readily two partners part at equilibrium. Low readings indicate tighter binding, high ones weaker binding.

As to `CCNC(=O)C[C@@H]1N=C(c2ccc(CN3CCN(c4ncc(C(=O)N[C@H]5C(C)(C)[C@H](Oc6ccc(C#N)c(Cl)c6)C5(C)C)cn4)CC3)cc2)c2c(sc(C)c2C)-n2c(C)nnc21`, the results for the GI50 (in test [1]; in test [2]; with VCaP cells) were < 500 nM, 500 to 1500 nM and 500 to 1500 nM, respectively.

Turning to `CCNC(=O)C[C@@H]1N=C(c2ccc(N3CC4(C3)CN(c3ncc(C(=O)N[C@H]5C(C)(C)[C@H](Oc6ccc(C#N)c(Cl)c6)C5(C)C)cn3)C4)cc2)c2c(sc(C)c2C)-n2c(C)nnc21`, the Kd at androgen receptor is < 50 nM. The figures for the concentration for 50% growth inhibition (GI50) (in test [1]; in test [2]; in the test with VCaP cells) were < 500 nM, 500 to 1500 nM and < 500 nM, respectively.

Regarding `CCNC(=O)C[C@@H]1N=C(c2ccc(CC3CCN(c4ncc(C(=O)N[C@H]5C(C)(C)[C@H](Oc6ccc(C#N)c(Cl)c6)C5(C)C)cn4)CC3)cc2)c2c(sc(C)c2C)-n2c(C)nnc21`, at androgen receptor, the Kd is < 50 nM. Further, the concentration for 50% growth inhibition (GI50) was < 500 nM in test [1], < 500 nM in test [2] and 1500 to 3000 nM with VCaP cells.

The record behind these values is patent US20260062422A1 (Halda Therapeutics OpCo, Inc., priority 2022, published 2026).
